The record followed here is patent publication US9320741B2, “Compositions and methods for treating neoplasia, inflammatory disease and other disorders” (Dana-Farber Cancer Institute, Inc., priority 2010, dated 2016).

The structures appear in SMILES notation.

The subject of experiment [1] is Keratin-14, Keratin-10, epidermal transglutaminase (TGM1). Briefly: RT-PCR expression analysis of squamous tissue genes in NMC 797 cells. In kind it is cell-based, human.
The target in experiment [2] is BRD4(2) (Homo sapiens (Human), UniProt O60885). Briefly: Alpha-assay acetyl-histone binding, BRD4 site 2. To be noted: 12-point dose response curve, read-out: Bio-assay IC50 BRD4(2).

Turning to `Cc1sc2c(c1C)C(c1ccc(Cl)cc1)=N[C@@H](CC(=O)OC(C)(C)C)c1nnc(C)n1-2` (single isomer, unassigned) [(+)-JQ1], the “induction of Keratin-14” value in experiment [1] turned out to be 30 fold. Consider `Cc1sc2c(c1C)C(c1ccc(Cl)cc1)=NC(CC(=O)NCCCN1CCN(C)CC1)c1nnc(C)n1-2` (centres unmarked) [JQ35], for which the 50% inhibitory concentration (IC50) in experiment [2] was determined as 6.13 nM.
